{"source": "patent US20090022714A1", "about": "“Combination methods of inhibiting tumor growth with a vascular endothelial growth factor receptor antagonist” (ImClone Systems, Inc., priority 2001, published 2009)", "key": {"HL60 cells": {"system": "HL60 cells", "test": "Leukemia migration assay, HL60", "assay_type": "cell-based, human", "details": "Fab 5 Φg/ml", "description": "(§1) HL60 and HEL cells were washed three times with serum-free plain RPMI 1640 medium and suspended in the medium at 1×10^6/ml. Aliquots of 100 Φl cell suspension were added to either 3-Φm-pore transwell inserts for HL60 cells, or 8-Φm-pore transwell inserts for HEL cells (Costar®, Corning Incorporated, Corning, N.Y.) and incubated with the anti-KDR (VEGFR-2) Fab proteins (5 Φg/ml) for 30 min at 37° C. […] The migration was carried out at 37° C., 5% CO2 for 16-18 h for HL60 cells, or for 4 h for HEL cells. Migrated cells were collected from the lower compartments and counted with a Coulter counter (Model Z1, Coulter Electronics Ltd., Luton, England)."}, "HEL cells": {"system": "HEL cells", "test": "Leukemia migration assay, HEL", "assay_type": "cell-based, human", "details": "Fab 5 Φg/ml", "description": "as §1"}}}
{"substance": "Fab fragment of C225: Fab fragment of C225, an antibody directed against EGF receptor; control", "values": [{"measurement": "inhibition of VEGF-stimulated migration of HL60 cells", "setting": "HL60 cells", "result": "did not show significant inhibitory effect"}, {"measurement": "inhibition of VEGF-stimulated migration of HEL cells", "setting": "HEL cells", "result": "did not show significant inhibitory effect"}]}
